Chains of the proteins cited; added tags and fusions are not shown.
UniProt P11309, whole entry: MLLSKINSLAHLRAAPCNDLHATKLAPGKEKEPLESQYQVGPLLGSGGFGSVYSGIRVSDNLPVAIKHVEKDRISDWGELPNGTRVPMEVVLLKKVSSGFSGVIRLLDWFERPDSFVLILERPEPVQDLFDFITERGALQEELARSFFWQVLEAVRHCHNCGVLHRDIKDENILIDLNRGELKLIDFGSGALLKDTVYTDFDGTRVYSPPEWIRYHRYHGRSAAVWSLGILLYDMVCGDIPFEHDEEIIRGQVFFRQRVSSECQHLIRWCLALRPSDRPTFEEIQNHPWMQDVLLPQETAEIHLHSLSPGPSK

In patent US9187486B2 (AMGEN INC., priority 2011, dated 2015):

Target: Pim-1 (Homo sapiens (Human), UniProt P11309)
Assay: Pim enzyme assay (HTRF, phosphorylation of biotinylated-BAD (S112) peptide), Pim-1
Type: biochemical
Settings: full length recombinant Pim-1, biotinylated-BAD (S112) peptide, 96-well, read-out: Pim-1 IC50 IP
Description: Full-length human cDNAs encoding Pim-1 (MGC ID 3913552) or Pim-2 (IMAGE ID 5092935) were purchased from Invitrogen, Carlsbad, Calif. These cDNAs were used as templates in PCR reactions to produce full-length DNA clones of the PIMs. Oligonucleotide PCR primers for Pim-1 were 5′-[…]-3′ and 5′-[…]-3′. Oligonucleotide PCR primers for Pim-2 were 5′-[…]-3′ and 5′-[…]-3′. PCR products were digested with BclI and EcoRI for Pim-1 and BamHI and EcoRI for Pim-2 and ligated into a modified baculovirus transfer vector (pFastBac 1) cleaved with BamHI and EcoRI. […]
The frozen cell pellets were thawed by stirring in chilled lysis buffer (0.05 M HEPES, pH 8.0, 0.25 M NaCl, 0.01 M 2-mercaptoethanol, 10% (w/v) glycerol, 0.5% (v/v) protease inhibitor cocktail (Sigma P-8340) at a ratio of 1 L/200 g cells until homogeneous. The thawed suspension was applied to a microfluidizer at 10,000 PSI to disrupt the cells and the whole lysates were clarified by centrifugation at 50,000×g for 90 min, 4° C. Imidazole was added to the clarified lysate to a final concentration of 2.5 mM and the lysate was mixed with 10 mL of Talon resin (Clontech) and the slurry rocked gently overnight at 4° C. […] Fractions were analyzed by SDS-PAGE and those containing the protein of interest were pooled and concentrated. […]

Row | Compound | IC50
1 | N[C@@H]1C=C(c2ccncc2Nc2ncc3ccc(-c4c(F)cccc4F)nn23)CC[C@H]1F (racemic) [Example 93, (2,2,2-trifluoroacetate)] | 2.4 nM
2 | N[C@@H]1CN(c2ccncc2Nc2ncc3ccc(-c4c(F)cccc4F)nn23)CC[C@H]1F (single isomer, unassigned) [Example 44, N-(4-(trans-3-amino-4-fluoropiperidin-1-yl)pyridin-3-yl)-2-(2,6-difluorophenyl)imidazo[1,5-b]pyridazin-7-amine] | 7.4 nM
